{"sequences": {"note": "Protein sequences, listed by entry. Tags and fused reporters are not part of them. Residues count along the entry.", "UniProt O95819, 25-289 limits assumed": "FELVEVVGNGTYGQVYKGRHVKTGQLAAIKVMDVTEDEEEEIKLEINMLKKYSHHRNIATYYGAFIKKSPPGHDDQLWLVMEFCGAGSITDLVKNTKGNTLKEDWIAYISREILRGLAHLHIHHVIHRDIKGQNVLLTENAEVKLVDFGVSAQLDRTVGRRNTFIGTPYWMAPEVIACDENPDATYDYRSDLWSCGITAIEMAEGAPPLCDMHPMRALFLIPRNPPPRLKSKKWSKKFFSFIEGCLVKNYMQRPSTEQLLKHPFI"}, "source": "patent US12247045B2", "about": "“MAP4K4 inhibitors” (Imperial College Innovations Limited, priority 2018, dated 2025)", "data": [{"molecular_target": "human MAP4K4 kinase domain (Homo sapiens, UniProt O95819)", "assay": "MAP4K4 kinase activity, CisBio HTRF Transcreener ADP assay", "conditions": "read-out: MAP4K4; IC50 category; ATP at Km (10 μM), 0.5 nM kinase domain, 2 h", "description": "Compounds of the present invention were screened for their inhibitory activity against MAP4K4, versus selected off-target hits found with early members of this chemical series. MAP4K4 kinase activity was monitored using the CisBio HTRF Transcreener ADP assay, a competitive immunoassay with a reproducible Z′>0.6. In the detection step, endogenous ADP and d2-labeled ADP compete for binding an anti-ADP monoclonal antibody labelled with Eu^3+ cryptate. A ratiometric fluorescent read-out is used at 665 and 620 nm. Reactions were performed in the presence of 1% DMSO with ATP added at Km (10 μM), 0.5 nM human MAP4K4 kinase domain (Invitrogen), 1 μM biotin-myelin basic protein as substrate (Invitrogen), and extension of reaction time to 2 h. Assays were run in Greiner low volume plates with a final reaction volume of 10 μl. The MAP4K4 inhibition data are provided in Table 41 below for selected compounds of the present invention. The data has been categorised based on the IC50 value of the compound as “A”, “B” or “C”. IC50: A≤100 nM; 100 nM<B≤1 μM; 1 μM<C; nd=not determined.", "units": {"IC50": "nM"}, "values": [{"smiles": "CC(C)(O)CCOc1ccc(-c2cn(-c3cccnc3)c3cc[nH]c(=O)c23)cc1", "IC50": "100 to 1000"}, {"smiles": "COCCOc1ccc(-c2cn(-c3ccc(N)nc3)c3nc[nH]c(=O)c23)cc1", "IC50": "< 100"}, {"smiles": "CC(C)(O)COc1ccc(-c2cn(-c3ccc[n+]([O-])c3)c3nc[nH]c(=O)c23)cc1", "IC50": "100 to 1000"}]}]}
